From patent publication US8450118B2, “Method for detecting binding interactions between membrane proteins and analytes in a homogenous assay” (Molecular Sensing, Inc., priority 2009, dated 2013)

Columns and labels:
rabbit B1 receptor = molecular target: T1, rabbit B1 receptor (Oryctolagus cuniculus, UniProt P48748); details: cited from earlier work
T1 sequence (P48748 1-352): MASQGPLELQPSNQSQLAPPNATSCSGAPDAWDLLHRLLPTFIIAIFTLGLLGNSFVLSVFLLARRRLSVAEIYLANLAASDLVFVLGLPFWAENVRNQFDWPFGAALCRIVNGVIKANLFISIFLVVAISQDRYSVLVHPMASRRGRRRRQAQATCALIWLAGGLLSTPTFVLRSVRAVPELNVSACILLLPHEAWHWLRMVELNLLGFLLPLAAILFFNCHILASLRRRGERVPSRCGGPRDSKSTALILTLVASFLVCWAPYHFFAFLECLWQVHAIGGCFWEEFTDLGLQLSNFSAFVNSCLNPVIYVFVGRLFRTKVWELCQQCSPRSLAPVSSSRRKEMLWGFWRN

[1] = molecular target: T2, Bradykinin B1 Receptor membranes (Homo sapiens, UniProt P46663); assay: Homogeneous BSI assay with passivated surface (Experiment 2); details: membranes 10 μg/mL, six hours incubation, capillary passivated with CHO cell membranes (FIG. 12); read-out: Kd, one site binding (hyperbola) fit
T2 construct: purchased PerkinElmer ES-091-M400UA; CHO is inferred from the CHO cell membranes used as control
T2 sequence (P46663 1-353): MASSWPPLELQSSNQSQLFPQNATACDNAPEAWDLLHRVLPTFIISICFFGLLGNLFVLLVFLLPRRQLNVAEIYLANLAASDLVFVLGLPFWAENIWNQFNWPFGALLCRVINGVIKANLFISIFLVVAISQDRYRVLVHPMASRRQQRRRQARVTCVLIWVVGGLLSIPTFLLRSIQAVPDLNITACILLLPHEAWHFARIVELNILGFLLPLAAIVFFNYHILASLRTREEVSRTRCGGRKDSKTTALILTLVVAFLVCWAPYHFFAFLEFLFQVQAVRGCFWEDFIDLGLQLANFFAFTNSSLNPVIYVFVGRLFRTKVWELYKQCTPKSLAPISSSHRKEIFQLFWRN
Procedure: (§1) This assay makes use of the following commercially available reagents: Bradykinin B1 Receptor PerkinElmer Product number ES-091-M400UA. MEMBRANES: 1×400 units/1000 μl frozen aliquot. PACKAGING BUFFER: 50 mM Tris-HCl pH 7.4, 0.5 mM EDTA, 10 mM MgCl2, 10% sucrose STORAGE CONDITIONS: Store at −80° C. Avoid repeated freeze-thaw. UNIT SIZE: 50 μg protein/unit. EXPRESSION LEVEL (BMax): 0.24 pmol/mg membrane protein. PROTEIN CONCENTRATION: 20 mg/ml.
The passivated surface is prepared as follows. A surface comprising a lipid-like layer is made using the same protocol as described above for the heterogeneous assay in (experiment 1) section 4.2.1.
Then, a control membrane preparation (one that will not bind the target analyte) is bound to the surface, again as described above for creating the surface for the heterogeneous assay. This surface is used for the experiments.
The interaction of the Lys-(Des-Arg9)-Bradykinin and the membranes are set up in a homogeneous manner. The Lys-(Des-Arg9)-Bradykinin is serially diluted to 50 nM to 6 pM and then split. The membranes are diluted to 20 μg/mL and then mixed 1:1 with one set of the split Lys-(Des-Arg9)-Bradykinin concentrations. Concentration of the samples and membranes are therefore halved to 25 nM to 3 pM and 10 μg/mL respectively. The mixture was then allowed to incubate for six hours. […]

Human B1 receptor = molecular target: T3, Human B1 receptor (Homo sapiens, UniProt P46663); details: cited from earlier work
T3 sequence (P46663 1-353): T2 sequence (P46663 1-353)

[2] = molecular target: T2, Bradykinin B1 Receptor membranes; assay: Homogeneous BSI assay employing laminar flow, bare capillary (Experiment 3); assay type: binding; details: bolus/laminar flow, same concentrations as Experiment 2 (FIG. 14)
Procedure: as §1
The interaction of the Lys-(Des-Arg9)-Bradykinin and the membranes are set up in a homogeneous manner. The Lys-(Des-Arg9)-Bradykinin is serially diluted to 50 nM to 6 pM and then split. The membranes are diluted to 20 μg/mL and then mixed 1:1 with one set of the split Lys-(Des-Arg9)-Bradykinin concentrations. Concentration of the samples and membranes are therefore halved to 25 nM to 3 pM and 10 μg/mL respectively. The mixture was then allowed to incubate for six hours. Buffer was added 1:1 to the other set to form the controls without the analyte.
Sample is prepared as described in Experiment 2.
A bare capillary is inserted into the system. The running buffer is flown through the capillary until a stable signal is obtained. The homogeneous samples (both control and assay) are then injected into the system and the change from baseline is monitored. The signal obtained from the control samples is subtracted from the assay.

[3] = molecular target: T4, human Bradykinin B1 Receptor membrane fraction (Homo sapiens, UniProt P46663); assay: Heterogeneous BSI assay with membrane bound to channel surface (Experiment 1); assay type: binding
T4 construct: purchased PerkinElmer ES-091-M400UA; CHO is inferred from the CHO cell membranes used as control
T4 sequence (P46663 1-353): T2 sequence (P46663 1-353)
Excerpt: The system can be used to determine the on- and off-kinetics of binding with a flowing system. In the flowing system, one molecule can be attached to the surface with chemistry. A running buffer is then flowed over the activated surface. Once the signal is stable, a second molecule that binds to the first is flown thought the system in increasing concentrations. When the sample interacts with the surface, there is an increase in signal until equilibrium is reached. When the running buffer is flowed back through, the bound molecules disassociate and the signal decreases and then equilibrates on the running buffer. For the reaction of the two molecules, an increase in signal is observed and then equilibrates. For this part of the curve, a ‘one phase exponential association’ equation is used [Y=Ymax*(1−exp(−K*X))] where K is the K observed. For the dissociation of the two molecules, a decrease in signal is observed until an equilibrium is reached. For this part of the curve, a ‘one phase exponential decay’ equation is used [Y=Span*exp(−K*X)+Plateau], where the K is the K off. The K on value is calculated by subtracting the K off from the K observed then dividing the value by the concentration of the binding ligand {Kon=(Kobs−Koff)/[ligand]}. The KD value is collected by dividing the K off by the K on [KD=Koff/Kon]. […]

In the case of “Lys-(Des-Arg^9)-Bradykinin/Lys-(Des-Arg^10)-kallidin [Lys-(Des-Arg9)-Bradykinin]”, the “fold higher affinity for Lys-BK (1-8) relative to BK(1-8)” value (rabbit B1 receptor) is listed as ~150 fold, the Kd [1] is listed as 0.18 nM and the “fold higher affinity for Lys-BK (1-8) relative to BK(1-8)” value (Human B1 receptor) is listed as “approximately 2,000 fold”. For the same substance, the Kd [2] was 0.15 nM, the Kd ([3]; flowing system, kinetic analysis KD=Koff/Kon (FIG. 10), control subtracted, read-out: Kd calculated from Kobs and Koff) was 0.41 nM and the Kd ([3]; maximum signal of each concentration plotted versus concentration (FIG. 9), control CHO membranes subtracted, read-out: endpoint analysis, one site binding fit value) was 0.053 nM.

Like-named read-outs stand apart in the source and are kept apart here.
